## CycPeptMPDB entries from one study

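Conditions beyond the assay type are not listed; see the original paper. The list need not hold all peptides of the study. Entries at the database's floor value (log10 P of -10) are not listed.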

PAMPA measures passive passage through an artificial lipid membrane.
Caco-2: transport across a human colon carcinoma cell monolayer.
Permeability is in 10^-6 cm/s, converted from the database's log10 values; higher is more permeable.
A value with < or ≤ is an upper limit.
"–" marks a cell with nothing listed here.

| compound | PAMPA (10^-6 cm/s) | Caco-2 (10^-6 cm/s) |
|---|---|---|
| O=C1NCCCCCCNCC(=O)N2CCC[C@H]2C(=O)N[C@H]1Cc1ccc(O)cc1 | < 0.016 | – |
| CC(C)CN1CC(=O)NCCCCCCN[C@@H](Cc2ccccc2)C(=O)N[C@@H](C)C1=O | 50 | 100 |
| CC(C)C[C@@H]1NCCCCCCNC(=O)[C@H](Cc2ccccc2)NC(=O)[C@H](C)NC1=O | 32 | 12 |
| CC(C)C[C@@H]1NC(=O)[C@H](Cc2ccccc2)NC(=O)[C@H](C)NCCCCCCNC1=O | 63 | 6.2 |
| CC(C)C[C@@H]1NC(=O)[C@H](C)NCCCCCCNC(=O)[C@H](Cc2ccccc2)NC1=O | 32 | 5.8 |
| CC(C)C[C@@H]1C(=O)NCCCCCCN[C@@H](Cc2ccccc2)C(=O)N[C@@H](C)C(=O)N1C | 25 | 350 |
| CC(C)C[C@@H]1NC(=O)CN(C)C(=O)[C@H](Cc2ccccc2)NCCCCCCNC1=O | 20 | 2.3 |
| CC(C)C[C@@H]1NC(=O)[C@@H](C)N(C)C(=O)[C@H](Cc2ccccc2)NCCCCCCN(C)C1=O | 25 | 40 |
| CC(C)C[C@@H]1NC(=O)[C@H](C)NC(=O)[C@H](Cc2ccccc2)N(C)CCCCCCNC1=O | 6.3 | 42 |
| CC(C)C[C@H]1C(=O)N(C)CCCCCCN[C@@H](Cc2ccccc2)C(=O)N(C)[C@H](C)C(=O)N1C | 32 | 200 |
| CC(C)C[C@@H]1NC(=O)[C@H](Cc2ccc(O)cc2)NC(=O)[C@H](C)NCCCCCCNC1=O | 0.2 | – |
| CC(C)C[C@@H]1NC(=O)[C@H](C)NC(=O)[C@H](Cc2ccccc2)NCCCNC1=O | 13 | 7.8 |
| CC(C)C[C@H]1NC(=O)[C@@H](C)NCCCCCCNC(=O)[C@H](CO)NC1=O | 3.2 | – |
| CC(C)C[C@H]1NC(=O)[C@H](C)NC(=O)[C@H](Cc2ccccc2)NCCCCCCN(C)C1=O | 20 | 190 |
| CC(C)C[C@@H]1NC(=O)[C@@H](Cc2ccc(O)cc2)NC(=O)[C@@H](C)NCCCCCCNC1=O | 0.25 | – |
| CC(C)C[C@@H]1NC(=O)[C@H](C)NC(=O)[C@H](Cc2ccccc2)NCCCCNC1=O | 20 | 6.5 |
| CC(C)C[C@@H]1NC(=O)[C@H](C)NC(=O)[C@H](Cc2ccccc2)NCCCCCCCCCNC1=O | 32 | 83 |
| CC(C)C[C@@H]1NCCCCCCNC(=O)[C@H](C)NC(=O)[C@H](Cc2ccccc2)NC1=O | 32 | 17 |
| CC(C)C[C@@H]1NC(=O)[C@H](C)NC(=O)[C@H](Cc2ccccc2)NCCCCCNC1=O | 25 | 19 |
| CC(C)C[C@H]1C(=O)NCCCCCCN[C@@H](Cc2ccccc2)C(=O)N[C@@H](C)C(=O)N1C | 25 | 170 |

Source: CycPeptMPDB (Li et al. 2023), which took these values from Le Roux et al. 2020, doi:10.1021/acs.jmedchem.0c00013.